The entries are a selection whose mix differs from that of the whole data set. Some tests of the compounds listed are not included; inactive here does not mean inactive elsewhere. Activity calls are given as the source filed them. Rule as the data show it: active = inhibition above about 13% (passing the limit was not always enough); inactive = the rest.
Each molecule was assayed against Lon protease (Escherichia coli (strain K12)) (UniProt P0A9M0) (assay: E. coli eLon protease inhibition – biochemical, fluorescence polarization, primary screen (AID 602123;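 also: 0% = enzyme with probe and DMSO and 100% = no enzyme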)). Conditions: purified E. coli Lon protease, at 7.94 µM, stronger effect = higher value.

The chains behind the UniProt entries cited, without tags or fusion partners.
UniProt P0A9M0, whole entry: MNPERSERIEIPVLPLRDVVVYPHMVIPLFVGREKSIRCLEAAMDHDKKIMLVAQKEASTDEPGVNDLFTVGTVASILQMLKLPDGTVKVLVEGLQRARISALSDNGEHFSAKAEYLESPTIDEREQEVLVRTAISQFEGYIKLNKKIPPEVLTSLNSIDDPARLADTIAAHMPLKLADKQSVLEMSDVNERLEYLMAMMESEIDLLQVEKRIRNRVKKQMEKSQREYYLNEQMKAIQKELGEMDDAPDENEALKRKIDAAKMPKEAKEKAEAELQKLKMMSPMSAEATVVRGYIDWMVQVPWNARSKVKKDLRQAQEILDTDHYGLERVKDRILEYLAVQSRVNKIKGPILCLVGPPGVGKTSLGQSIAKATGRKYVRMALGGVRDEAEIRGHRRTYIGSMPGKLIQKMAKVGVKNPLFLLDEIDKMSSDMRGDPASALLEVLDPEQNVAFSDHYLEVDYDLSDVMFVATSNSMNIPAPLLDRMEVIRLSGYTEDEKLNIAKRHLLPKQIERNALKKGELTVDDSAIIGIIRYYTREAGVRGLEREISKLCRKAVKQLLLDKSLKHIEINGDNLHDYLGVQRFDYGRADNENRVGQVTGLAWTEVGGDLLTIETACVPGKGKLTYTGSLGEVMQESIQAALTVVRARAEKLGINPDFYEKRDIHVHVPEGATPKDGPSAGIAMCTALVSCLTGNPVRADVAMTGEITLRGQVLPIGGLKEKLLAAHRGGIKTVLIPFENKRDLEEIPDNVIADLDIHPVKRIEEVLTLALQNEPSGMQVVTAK

Compound	inhibition
O=C(NCC1(N2CCCCC2)CCCCC1)c1cccc(Cl)c1	inactive: 1.9%
COc1cccc(C(=O)NCC2(N3CCCCC3)CCCCC2)c1	inactive: -8.53%
COc1ccc(Cl)cc1C(=O)NCC1(N(C)C)CCCCC1	inactive: 4.15%
COc1cc(C(=O)NCC2(N(C)C)CCCCC2)c([N+](=O)[O-])cc1OC	inactive: -0.49%
CN(C)C1(CNC(=O)c2ccc(Br)cc2)CCCCC1	inactive: -0.74%
CC(C)Oc1ccc(C(=O)NCC2(N(C)C)CCCCC2)cc1	inactive: -7.5%
O=C(OCCN1CCCC1)C(O)(c1ccccc1)c1ccccc1	inactive: -1.85%
CN(C)c1cccc(C(=O)NCC2(N(C)C)CCCCC2)c1	inactive: -1.49%
C=C(C)C#CC(O)(C(=O)OC1CCN(C)CC1)c1ccccc1 (stereo unspecified)	inactive: 1.44%
COc1ccc(Br)c(C(=O)NCC2(N3CCCCC3)CCCCC2)c1	inactive: -13.7%
O=C(OC1CN2CCC1CC2)C(CO)(c1ccccc1)c1ccccc1 (stereo unspecified)	inactive: -10.2%
Cc1ccc(C(=O)NCC2(N3CCCCC3)CCCCC2)cc1	inactive: -12.2%
CCN(CC)CC(C)C(C)OC(=O)C(O)(c1ccccc1)c1ccccc1 (stereo unspecified)	inactive: 3.79%
COc1cc(SC)ccc1C(=O)NCC1(N(C)C)CCCCC1	inactive: -0.43%
CC(C)N1C(=O)CC2(CCN(CCOC(=O)C(O)(c3ccccc3)c3ccccc3)CC2)C1=O	inactive: -16.2%
CN1[C@@H]2CC[C@H]1CC(OC(=O)C(O)(c1ccccc1)c1ccccc1)C2 (stereo partly specified)	inactive: 2.85%
O=C(NCC1(N2CCCCC2)CCCCC1)c1cc([N+](=O)[O-])ccc1Cl	inactive: -1.79%
COc1ccc(C(=O)NCC2(N(C)C)CCCCC2)cc1	inactive: -0.03%
CCN1CCCC(OC(=O)C2(O)c3ccccc3C=Cc3ccccc32)C1 (stereo unspecified)	inactive: 2.09%
Cc1cc(C(=O)NCC2(N3CCCCC3)CCCCC2)ccc1[N+](=O)[O-]	inactive: 4.89%
O=C(NCC1(N2CCCCC2)CCCCC1)c1cccc(Br)c1	inactive: 5.16%
C=CCN1CCN(CCOC(=O)C(O)(c2ccccc2)c2ccccc2)CC1	inactive: 7.59%
O=C(NCC1(N2CCCCC2)CCCCC1)c1cc(F)c(F)cc1Cl	inactive: 3.01%
Cc1ccccc1C(=O)NCC1(N2CCCCC2)CCCCC1	inactive: 3.05%
CN(C)c1ccc(C(=O)NCC2(N(C)C)CCCCC2)cc1	inactive: -3.61%
CN(C)C1CCCC1OC(=O)C(O)(c1ccccc1)c1ccccc1 (stereo unspecified)	inactive: 8.03%
